One compound from patent US10603325B2 (dated 2020) can be followed below.

Entries after “also recorded” stand apart in the source; their conditions may differ.

This series has as its system EpiDerm (EPI-200) skin tissue. The series can be described thus: Skin irritation test (MTT tissue viability). The class given is cell-based. The note with it: MB at various concentrations for 60 minutes, highest dosage 500 mM.

For the compound `CN(C)c1ccc2nc3ccc(N(C)C)cc3[s+]c2c1.[Cl-]` [MB, 3,7-bis(dimethylamino)-phenothiazin-5-ium chloride], the skin irritation entry is given as “No skin irritation was observed; also recorded: does not irritate skin”.
